Values quoted from earlier work in patent US20240156846A1, “COMPOSITIONS AND METHODS FOR TREATING NEURODEGENERATIVE DISORDERS” (Arizona Board of Regents on Behalf of the University of …, priority 2020, published 2024).

What was measured:
[1] = cited from earlier work
[2] = test system: Aβ present in the brain of mice; conditions: preclinical trials; cited from earlier work

bapineuzumab: monoclonal antibody
amyloid load or CSF phosphorylated tau levels between treatment and placebo groups ([1]; another phase three clinical trial): no significant difference
functional or cognitive ability in treated patients ([1]; phase three trial): failed to show significant improvement
amount of Aβ present in the brain [2]: lower the amount of Aβ present in the brain of mice
